These are literature values, as cited in PubChem BioAssay AID977608.

One may read the IC50 as the point on the concentration scale where inhibition reaches its midpoint.

What all share (assay): protein-ligand inhibition affinities from structures – PDB-derived complexes (AID 977608)
Data set [1] concerns the target HLA class I histocompatibility antigen(HLA). The note with it: literature IC50, protein: HLA class I histocompatibility antigen(HLA), chain 3FT3_A, PDB entry 3FT3.
Data set [2] concerns the target HLA class I histocompatibility antigen, A-2 alpha chain. The note with it: literature IC50, protein: HLA class I histocompatibility antigen, A-2 alpha chain, chain 3D25_A, PDB entry 3D25.
Data set [3] has as its target Aurora2 kinase T288D mutant. The note with it: literature IC50, protein: Aurora2 kinase T288D mutant, chain 3LAU_A, PDB entry 3LAU.
The target of data set [4] is Aurora kinase A T288D mutant. Conditions: literature IC50, protein: Aurora kinase A T288D mutant, chain 3K5U_A, PDB entry 3K5U.
The target of another data set is bovine Cytochrome bc1. The note with it: literature IC50, protein: bovine Cytochrome bc1, chain 1SQB_C, PDB entry 1SQB.
For data set [5], the target named is Hepatitis C virus polymerase NS5B (BK 1-570). Conditions: literature IC50, protein: Hepatitis C virus polymerase NS5B (BK 1-570), chain 3FQK_A, PDB entry 3FQK.
For data set [6], the target named is Tyrosine-protein kinase JAK2. The note with it: literature IC50, protein: Tyrosine-protein kinase JAK2, chain 3KRR_A, PDB entry 3KRR.
Data set [7] concerns the target Casein kinase II subunit alpha,CK2. Conditions: literature IC50, protein: Casein kinase II subunit alpha,CK2, chain 3MB7_A, PDB entry 3MB7.
Data set [8] concerns the target Peptidyl-prolyl cis-trans isomerase NIMA-interacting 1. Conditions: literature IC50, protein: Peptidyl-prolyl cis-trans isomerase NIMA-interacting 1, chain 3NTP_A, PDB entry 3NTP.
In data set [9] the target is PUTATIVE 2'-O-METHYL TRANSFERASE
The note with it: literature IC50, protein: PUTATIVE 2'-O-METHYL TRANSFERASE, chain 2XYR_A, PDB entry 2XYR.

The next data set deals with dipeptidyl peptidase IV. Conditions: literature IC50, protein: dipeptidyl peptidase IV, chain 3G0C_A, PDB entry 3G0C.
Data set [10] concerns the target Ubiquitin-conjugating enzyme E2 R1, Human Cdc34 E2. Conditions: literature IC50, protein: Ubiquitin-conjugating enzyme E2 R1, Human Cdc34 E2, chain 3RZ3_A, PDB entry 3RZ3.
The target in a further data set is Uracil-DNA glycosylase. The note with it: literature IC50, protein: Uracil-DNA glycosylase, chain 3FCF_A, PDB entry 3FCF.
The target of data set [11] is Histone-lysine N-methyltransferase, H3 lysine-9 specific 5. The note with it: literature IC50, protein: Histone-lysine N-methyltransferase, H3 lysine-9 specific 5, chain 3FPD_A, PDB entry 3FPD.
Data set [12] has as its target Human dihydrofolate reductase. The note with it: literature IC50, protein: Human dihydrofolate reductase, chain 3S7A_A, PDB entry 3S7A.
A further data set concerns the target Aminopeptidase N,ePepN. Conditions: literature IC50, protein: Aminopeptidase N,ePepN, chain 3KED_A, PDB entry 3KED.
Another data set has as its target Biotin carboxylase. The note with it: literature IC50, protein: Biotin carboxylase, chain 3RV3_A, PDB entry 3RV3.
Data set [13] concerns the target human mitogen-activated kinase ERK1. Conditions: literature IC50, protein: human mitogen-activated kinase ERK1, chain 2ZOQ_A, PDB entry 2ZOQ.
For data set [14], the target named is Deoxyribonucleoside kinase (Dm-dNK). The note with it: literature IC50, protein: Deoxyribonucleoside kinase (Dm-dNK), chain 2VPP_A, PDB entry 2VPP.
In data set [15] the target is HISTONE-ARGININE METHYLTRANSFERASE CARM1. The note with it: literature IC50, protein: HISTONE-ARGININE METHYLTRANSFERASE CARM1, chain 2Y1X_B, PDB entry 2Y1X.
For another data set, the target named is rhGCPII. Conditions: literature IC50, protein: rhGCPII, chain 3D7D_A, PDB entry 3D7D.

Turning to `CC(C)C[C@H](NC(=O)[C@H](CC(C)C)NC(=O)[C@H](CC(=O)O)NC(=O)[C@H](CC(=O)O)NC(=O)[C@H](Cc1cnc[nH]1)NC(=O)[C@H](CC(C)C)NC(=O)[C@@H](N)C(C)C)C(=O)N[C@@H](CCC(=O)O)C(=O)N[C@@H](C)C(=O)O`, the IC50 in [1] was 0.044 µM; in data set [2] it was 0.022 µM.
On to `CCCC(=O)Nc1n[nH]c2cc(-c3ccc(O)cc3)ccc12`, for which, in data set [3], the IC50 is 30 µM.
With `OCCNc1ncnc2oc(-c3ccccc3)c(-c3ccccc3)c12`, the IC50 in data set [4] is 0.309 µM.
As to `CO/C=C(/C(=O)OC)c1ccccc1Oc1cc(Oc2ccccc2C#N)ncn1`, the IC50 on bovine Cytochrome bc1 is 0.0112 µM.
On to `CNC(=O)c1c(-c2ccc(F)cc2)oc2cc(N(CCO)S(C)(=O)=O)c(C3CC3)cc12`, for which the IC50 in data set [5] is 0.081 µM.
As to `Fc1cc(-c2cccc3ncc(-c4cnn(C5CCNCC5)c4)nc23)cc(F)c1CN1CCOCC1`, the IC50 in data set [6] is 0.00048 µM.
As to `O=C(O)c1cc2c(ccc3ccc4oc(C(=O)O)cc4c32)o1`, in data set [7], the IC50 is 0.2 µM.
Turning to `CC(=O)N[C@@H](COP(=O)(O)O)CN1CCC[C@H]1C(=O)NCCc1c[nH]c2ccccc12`, the IC50 in [8] was 12 µM.
With `Nc1ncnc2c1ncn2[C@@H]1O[C@H](C[C@@H](N)CC[C@H](N)C(=O)O)[C@@H](O)[C@H]1O`, the IC50 in [9] is 0.74 µM.
`Cn1c(=O)c2c(nc(N3CCNCC3)n2Cc2ccccc2Cl)n(C)c1=O`: on dipeptidyl peptidase IV, the IC50 is 2 µM.
Turning to `COCC(=O)N[C@@H](Cc1ccc(-c2cc(Cl)cc(Cl)c2)cc1)[C@H](O)[C@@H](O)C(=O)O`, in data set [10], the IC50 was 1.72 µM.
Regarding `O=C1CC(/C=N/OCCO/N=C/c2cccc(C(=O)O)c2)=NC(=O)N1`, the IC50 on Uracil-DNA glycosylase was 40 µM.
Turning to `COc1cc2nc(N3CCCN(C)CC3)nc(NC3CCN(Cc4ccccc4)CC3)c2cc1OC`, in [11], the IC50 was 0.7 µM.
Turning to `Nc1nc(N)c2nc(CN3c4ccccc4C=Cc4cc(OCCCC(=O)O)ccc43)cnc2n1`, the IC50 in data set [12] is 0.0011 µM.
On to `NCC[C@H](N)C(=O)O`, for which the IC50 at Aminopeptidase N,ePepN is 3600 µM.
For the molecule `Nc1ncnc2c1ncn2[C@@H]1O[C@H](COP(=O)(O)OP(=O)(O)O)[C@@H](O)[C@H]1O`, at Biotin carboxylase, the IC50 was 10000 µM.
Consider `Nc1ncnc2c1c(I)cn2[C@@H]1O[C@H](CO)[C@@H](O)[C@H]1O`, for which the IC50 in data set [13] was 0.9 µM.
Take `Nc1ccn([C@@H]2O[C@H](CO)[C@@H](O)C2(F)F)c(=O)n1`: the IC50 in data set [14] was 0.76 µM.
`C[C@H](N)C(=O)NCc1cccc(-n2nc(C(F)(F)F)cc2-c2nnc(-c3cccc4[nH]ccc34)o2)c1`: the IC50 in [15] was 0.027 µM.
With `O=C(O)CC[C@H](NC(=O)N[C@@H](CSCc1ccc(F)cc1)C(=O)O)C(=O)O`, at rhGCPII, the IC50 is 0.014 µM.
